Article PMC5411959, “Potential Antiosteoporotic Natural Product Lead Compounds That Inhibit 17β-Hydroxysteroid Dehydrogenase Type 2” (Journal of Natural Products, 2017)

Target: T1, human 17β-HSD1 (Homo sapiens, UniProt P14061)
T1 construct: expressed in transfected cells; host or cells: HEK-293 (ATCC), used as cell lysate
T1 sequence (P14061 1-328): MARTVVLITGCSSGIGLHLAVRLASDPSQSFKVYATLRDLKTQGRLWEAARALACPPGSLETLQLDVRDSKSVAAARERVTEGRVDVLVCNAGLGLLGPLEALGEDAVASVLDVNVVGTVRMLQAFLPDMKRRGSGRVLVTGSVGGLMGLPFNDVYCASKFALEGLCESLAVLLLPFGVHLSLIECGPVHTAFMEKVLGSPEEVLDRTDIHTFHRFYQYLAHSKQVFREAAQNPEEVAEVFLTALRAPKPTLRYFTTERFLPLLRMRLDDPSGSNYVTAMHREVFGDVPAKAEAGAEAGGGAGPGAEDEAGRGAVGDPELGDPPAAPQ
Assay: 17β-HSD1 activity assay using lysates of HEK-293 cells expressing the recombinant human enzyme
Format: biochemical
Conditions: for selectivity factor: 17β-HSD1 versus 17β-HSD2

SMILES	selectivity factor	selectivity over 17β-HSD1 (17β-HSD2 over 17β-HSD1) [fold]
CCOC(=O)c1ccc(O)c(OC)c1 [compound 12, ethyl vanillate]	>15	≥ 8
O=C(Cc1ccc(O)c(Cl)c1)NCCc1ccccc1 [compound 13, 2-(3-chloro-4-hydroxyphenyl)-N-phenethylacetamide]	>12	–
O=C(Cc1ccc(O)c(Cl)c1)NCc1ccccc1 [compound 16, N-benzyl-2-(3-chloro-4-hydroxyphenyl)acetamide]	>5	–
O=C(Cc1ccc(O)c(Cl)c1)NCCc1c[nH]c2ccccc12 [compound 17, N-(2-(1H-indol-3-yl)ethyl)-2-(3-chloro-4-hydroxyphenyl)acetamide]	>20	–
